Results published in PMC2818795 (Molecular cell, 2008).

Biological target: heterotrimeric PP2A holoenzyme involving the Bα subunit (Aα-Bα-Cα) ( | human)
Assay: native gel or EMSA

B1: full-length Tau, splice variant 4R0N (human) (natural protein)
chain: not shown
  Kd: ~3000 nM
